Measurements as given in article PMC2425476 (Nucleic Acids Research, 2008).

B1: δ subunit of the E. coli clamp loader (γ complex), wild type (natural protein)
chain: MIRLYPEQLRAQLNEGLRAAYLLLGNDPLLLQESQDAVRQVAAAQGFEEHHTFSIDPNTDWNAIFSLCQAMSLFASRQTLLLLLPENGPNAAINEQLLTLTGLLHDDLLLIVRGNKLSKAQENAAWFTALANRSVQVTCQTPEQAQLPRWVAARAKQLNLELDDAANQVLCYCYEGNLLALAQALERLSLLWPDGKLTLPRVEQAVNDAAHFTPFHWVDALLMGKSKRALHILQQLRLEGSEPVILLRTLQRELLLLVNLKRQSAHTPLRALFDKHRVWQNRRGMMGEALNRLSQTQLRQAVQLLTRTELTLKQDYGQSVWAELEGLSLLLCHKPLADVFIDG

Legend:
[1] = target: T1, γ subunit of the E. coli clamp loader (γ complex) (Escherichia coli, UniProt P06710-2 1-431)
T1 sequence: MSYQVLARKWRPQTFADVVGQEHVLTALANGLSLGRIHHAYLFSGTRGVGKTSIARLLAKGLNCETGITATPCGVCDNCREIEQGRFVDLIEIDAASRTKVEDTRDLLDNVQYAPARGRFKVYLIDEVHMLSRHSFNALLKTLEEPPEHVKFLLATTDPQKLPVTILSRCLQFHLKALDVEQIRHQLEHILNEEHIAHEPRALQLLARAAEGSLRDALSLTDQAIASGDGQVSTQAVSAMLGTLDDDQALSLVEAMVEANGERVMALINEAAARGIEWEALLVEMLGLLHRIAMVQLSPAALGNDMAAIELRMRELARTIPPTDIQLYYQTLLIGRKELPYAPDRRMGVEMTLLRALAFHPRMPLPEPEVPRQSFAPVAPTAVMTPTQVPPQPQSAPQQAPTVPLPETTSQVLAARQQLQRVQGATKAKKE

[2] = target: T2, δ subunit W279A/R277A double mutant (Escherichia coli, UniProt P28630 1-343, R277A | W279A)
T2 sequence: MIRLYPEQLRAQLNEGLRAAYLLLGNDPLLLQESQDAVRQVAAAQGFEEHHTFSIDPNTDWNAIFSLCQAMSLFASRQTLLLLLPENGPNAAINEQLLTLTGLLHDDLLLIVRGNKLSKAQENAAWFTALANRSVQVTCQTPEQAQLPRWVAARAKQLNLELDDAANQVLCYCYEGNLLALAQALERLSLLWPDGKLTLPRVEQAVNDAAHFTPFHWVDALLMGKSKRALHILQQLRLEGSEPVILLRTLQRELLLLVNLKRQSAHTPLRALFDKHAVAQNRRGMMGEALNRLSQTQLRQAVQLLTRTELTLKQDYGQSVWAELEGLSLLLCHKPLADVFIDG

[3] = target: T3, δ subunit R277A mutant (Escherichia coli, UniProt P28630 1-343, R277A)
T3 sequence: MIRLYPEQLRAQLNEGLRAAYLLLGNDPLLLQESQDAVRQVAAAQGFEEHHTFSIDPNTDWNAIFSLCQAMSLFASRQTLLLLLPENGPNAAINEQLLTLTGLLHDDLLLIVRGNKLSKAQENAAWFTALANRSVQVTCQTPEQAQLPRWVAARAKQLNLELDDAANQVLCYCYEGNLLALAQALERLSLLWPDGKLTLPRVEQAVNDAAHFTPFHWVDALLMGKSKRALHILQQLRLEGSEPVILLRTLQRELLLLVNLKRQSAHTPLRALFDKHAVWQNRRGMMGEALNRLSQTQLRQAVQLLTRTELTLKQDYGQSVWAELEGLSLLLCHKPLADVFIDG

[4] = target: T4, δ subunit W279Y mutant (Escherichia coli, UniProt P28630 1-343, W279Y)
T4 sequence: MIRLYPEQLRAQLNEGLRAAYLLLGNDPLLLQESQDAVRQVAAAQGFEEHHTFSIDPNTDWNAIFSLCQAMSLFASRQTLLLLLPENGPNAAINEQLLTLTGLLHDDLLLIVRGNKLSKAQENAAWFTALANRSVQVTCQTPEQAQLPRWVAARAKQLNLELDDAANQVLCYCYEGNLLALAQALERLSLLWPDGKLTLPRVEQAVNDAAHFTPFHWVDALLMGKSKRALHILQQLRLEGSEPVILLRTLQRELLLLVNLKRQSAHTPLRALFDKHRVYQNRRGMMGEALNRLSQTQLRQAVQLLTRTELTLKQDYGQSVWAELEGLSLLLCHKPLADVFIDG

[5] = target: B1
[6] = target: T5, δ subunit W279A mutant (Escherichia coli, UniProt P28630 1-343, W279A)
T5 sequence: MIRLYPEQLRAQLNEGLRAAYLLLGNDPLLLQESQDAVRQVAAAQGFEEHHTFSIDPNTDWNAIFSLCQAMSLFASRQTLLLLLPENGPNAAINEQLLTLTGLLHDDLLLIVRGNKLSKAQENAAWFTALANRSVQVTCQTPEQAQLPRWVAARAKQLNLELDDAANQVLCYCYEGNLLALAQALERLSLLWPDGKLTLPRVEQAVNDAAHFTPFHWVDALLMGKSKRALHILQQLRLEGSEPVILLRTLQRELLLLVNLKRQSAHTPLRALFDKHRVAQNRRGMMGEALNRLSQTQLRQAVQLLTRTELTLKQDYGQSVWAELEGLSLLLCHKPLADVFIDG

[7] = target: T6, δ subunit W279A/R283A double mutant (Escherichia coli, UniProt P28630 1-343, W279A | R283A)
T6 sequence: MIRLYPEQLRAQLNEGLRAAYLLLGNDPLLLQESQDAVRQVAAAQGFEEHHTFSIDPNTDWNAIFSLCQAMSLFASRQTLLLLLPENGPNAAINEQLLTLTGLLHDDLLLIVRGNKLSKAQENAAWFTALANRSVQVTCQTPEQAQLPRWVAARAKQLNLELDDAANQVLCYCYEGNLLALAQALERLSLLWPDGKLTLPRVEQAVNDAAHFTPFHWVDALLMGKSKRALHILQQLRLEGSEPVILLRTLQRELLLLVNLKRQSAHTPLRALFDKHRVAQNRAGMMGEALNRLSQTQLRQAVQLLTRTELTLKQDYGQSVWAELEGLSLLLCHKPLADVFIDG

[8] = target: T7, δ subunit R283A mutant (Escherichia coli, UniProt P28630 1-343, R283A)
T7 sequence: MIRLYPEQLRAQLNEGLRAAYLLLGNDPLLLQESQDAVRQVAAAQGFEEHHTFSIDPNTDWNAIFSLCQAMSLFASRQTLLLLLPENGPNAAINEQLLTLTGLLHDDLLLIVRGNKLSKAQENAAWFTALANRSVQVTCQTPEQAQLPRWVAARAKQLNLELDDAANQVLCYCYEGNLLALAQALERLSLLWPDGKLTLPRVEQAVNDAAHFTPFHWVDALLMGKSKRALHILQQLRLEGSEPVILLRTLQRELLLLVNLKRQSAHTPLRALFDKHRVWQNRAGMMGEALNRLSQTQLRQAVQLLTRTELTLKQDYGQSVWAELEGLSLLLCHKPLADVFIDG

[9] = target: T5, δ subunit W279A mutant; remark: listed apart in the source

Measured: binding result

B1
binds: [1]

B2: ψ subunit of the E. coli clamp loader (γ complex) (natural protein)
chain: MTSRRDWQLQQLGITQWSLRRPGALQGEIAIAIPAHVRLVMVANDLPALTDPLVSDVLRALTVSPDQVLQLTPEKIAMLPQGSHCNSWRLGTDEPLSLEGAQVASPALTDLRANPTARAALWQQICTYEHDFFPRND
not listed: [1] | [9]
binds: all other assays above

B3: χ subunit of the E. coli clamp loader (γ complex) (natural protein)
chain: MKNATFYLLDNDTTVDGLSAVEQLVCEIAAERWRSGKRVLIACEDEKQAYRLDEALWARPAESFVPHNLAGEGPRGGAPVEIAWPQKRSSSRRDILISLRTSFADFATAFTEVVDFVPYEDSLKQLARERYKAYRVAGFNLNTATWK
not listed: [1] | [9]
binds: all other assays above

B4: δ′ subunit of the E. coli clamp loader (γ complex) (natural protein)
chain: MRWYPWLRPDFEKLVASYQAGRGHHALLIQALPGMGDDALIYALSRYLLCQQPQGHKSCGHCRGCQLMQAGTHPDYYTLAPEKGKNTLGVDAVREVTEKLNEHARLGGAKVVWVTDAALLTDAAANALLKTLEEPPAETWFFLATREPERLLATLRSRCRLHYLAPPPEQYAVTWLSREVTMSQDALLAALRLSAGSPGAALALFQGDNWQARETLCQALAYSVPSGDWYSLLAALNHEQAPARLHWLATLLMDALKRHHGAAQVTNVDVPGLVAELANHLSPSRLQAILGDVCHIREQLMSVTGINRELLITDLLLRIEHYLQPGVVLPVPHL
not listed: [1] | [6]
binds: all other assays above

Where two headings read alike, the source gives them in different places.
